# According to US12670969B2, “Network medicine framework for identifying drug repurposing opportunities” (Northeastern University, priority 2020, dated 2026):
# Like-named read-outs stand apart in the source and are kept apart here.
# Test system: SARS-CoV-2
# Type: cell-based
# Settings: nine-point dilution series from 25 μM to 100 nM
SMILES,anti-SARS-CoV-2 response (viral load reduction) in Huh7 cells,also measured
CC(=O)OC[C@H]1O[C@@H]([S-])[C@H](OC(C)=O)[C@@H](OC(C)=O)[C@@H]1OC(C)=O.CCP(CC)CC.[Au+] [auranofin],–,anti-SARS-CoV-2 response (viral load reduction) in Huh7 cells (listed as Auranofin): able to reduce the viral load
C[C@H]1O[C@@H](O[C@H]2[C@@H](O)C[C@H](O[C@H]3[C@@H](O)C[C@H](O[C@H]4CC[C@@]5(C)[C@H](CC[C@@H]6[C@@H]5C[C@@H](O)[C@]5(C)[C@@H](C7=CC(=O)OC7)CC[C@]65O)C4)O[C@@H]3C)O[C@@H]2C)C[C@H](O)[C@@H]1O [digoxin],very strong anti-SARS-CoV-2 response,anti-SARS-CoV-2 response (viral load reduction) in Huh7 cells (listed as Digoxin): able to reduce the viral load
CN(Cc1cnc2nc(N)nc(N)c2n1)c1ccc(C(=O)N[C@@H](CCC(=O)O)C(=O)O)cc1 [methotrexate],able to reduce the viral load,–
CN1CCCC(n2nc(Cc3ccc(Cl)cc3)c3ccccc3c2=O)CC1 (centres unmarked) [azelastine],very strong anti-SARS-CoV-2 response,anti-SARS-CoV-2 response (viral load reduction) in Huh7 cells (listed as Azelastine): able to reduce the viral load
CC[C@]1(O)C[C@@H]2CN(CCc3c([nH]c4ccccc34)[C@@](C(=O)OC)(c3cc4c(cc3OC)N(C)[C@H]3[C@@](O)(C(=O)OC)[C@H](OC(C)=O)[C@]5(CC)C=CCN6CC[C@]43[C@@H]65)C2)C1 [vinblastine],very strong anti-SARS-CoV-2 response,anti-SARS-CoV-2 response (viral load reduction) in Huh7 cells (listed as Vinblastine): able to reduce the viral load
